Values joined by “and” are separate entries in the source; they are usually repeats but may differ in a detail not shown here. Equal entries are not always repeated. The entries are a selection whose mix differs from that of the whole data set. Results filed as inconclusive are left out. Active and inactive are the calls of the source. Unless noted, calls follow the shape of the dose curve; as a rule, active = well fitted curve in the direction sought with a large enough effect in the repeat runs; inconclusive = weak or mixed curves; inactive = no such curve, though single readings can be large; an effect the other way counts as inactive or inconclusive.
Key:
[1] = qHTS assay to identify small molecule antagonists of the retinoid-related orphan receptor gamma (ROR-gamma) signaling pathway - cell viability counter screen (AID 1159520); conditions: Tet-on RORgamma CHO cells viability, ATP luminescence, 16 h; at 92.4 µM (top of the series) unless noted; also: % is scaled to controls: 0 for no effect and ±100 for the full control effect; nearly all actives have a fitted effect of over 50% in size
Description: U.S. Tox21 Program National Center for Advancing Translational Sciences [NCATS] NIH Chemical Genomics Center [NCGC] U.S. Environmental Protection Agency [EPA] National Institutes of Environmental Health Sciences [NIEHS] National Toxicology Program [NTP] U.S. Food and Drug Administration [FDA] Tox21 Assay Overview: Nuclear steroid hormone receptors are involved in many biological processes including inflammatory responses, cell proliferation, and apoptosis. Environmental factors or compounds disrupting these nuclear receptor pathways and gene expression may promote susceptibility to immunotoxicants and autoimmune diseases. One important group of these expression factors are the retinoid-related orphan receptors. To assess compounds that may interfere with the retinoid-related orphan receptor gamma (ROR-gamma) transcription factor, a cell-based luciferase assay was used. The CHO cell-based assay utilizes a TET-inducible ROR expression factor and ROR response element-LUC reporter gene. Reporter gene activity was induced using Doxycycline Hyclate and measured after 16 hr incubation. Tet-on ROR gamma CHO cells were used to screen against the Tox21 10K compound library for cytotoxicity by measuring the viability of the cells based on the quantitation of the ATP.
Tox21 Assay Protocol Summary: Tet-on ROR gamma CHO cells were dispensed at 1,000 cells in 4 uL of culture medium per well into white wall/solid bottom 1536-well plates using a Multidrop Combi (Thermo Scientific, Waltham, MA) dispenser. Following incubation at 37 C and 5% CO2 for 4 hr, 23 nL of compounds dissolved in DMSO, positive controls or DMSO only were transferred by a Pintool station (Kalypsys, San Diego, CA) and after 2 hr incubation at 37 C, one ul of 1 uM (final concentration) of Doxycycline Hyclate was added to all the wells by using a Flying Reagent Dispenser (FRD) (Aurora Discovery, San Diego, CA). After 16 hr incubation at 37 C and 5% CO2, 5 uL of CellTiter-Glo reagent (Promega Corporation, Madison, WI) was added to each assay plate using FRD. After 30 min incubation at room temperature, luminescence was quantified on a ViewLux plate reader (Perkin Elmer, Waltham, MA).

By UniProt entry, the sequences of proteins in these tests, tags left out.
UniProt P19793, whole entry: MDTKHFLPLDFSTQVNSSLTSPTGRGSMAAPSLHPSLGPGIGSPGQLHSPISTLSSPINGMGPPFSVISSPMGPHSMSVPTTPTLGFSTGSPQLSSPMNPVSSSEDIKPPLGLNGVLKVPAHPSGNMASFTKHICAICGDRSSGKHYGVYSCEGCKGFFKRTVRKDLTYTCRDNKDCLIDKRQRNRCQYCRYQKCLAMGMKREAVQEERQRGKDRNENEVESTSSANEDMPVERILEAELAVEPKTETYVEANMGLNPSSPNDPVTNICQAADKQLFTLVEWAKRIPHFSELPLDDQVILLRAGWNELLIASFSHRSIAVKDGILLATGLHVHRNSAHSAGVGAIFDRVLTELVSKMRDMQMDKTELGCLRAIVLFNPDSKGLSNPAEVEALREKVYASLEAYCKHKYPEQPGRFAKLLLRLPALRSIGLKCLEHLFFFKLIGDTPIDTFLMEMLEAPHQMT

[2] = biological target: Nuclear receptor ROR-gamma (Homo sapiens) (UniProt P51449); assay: qHTS assay to identify small molecule antagonists of the retinoid-related orphan receptor gamma (ROR-gamma) signaling pathway (AID 1159521; also: nearly all actives have a fitted effect of over 50% in size; also: potency is read from the fitted curve at half-maximal effect); conditions: Tet-on RORgamma CHO cells, RORE-luciferase, 16 h; series mostly up to 92.4 µM
[3] = qHTS assay to identify small molecule agonists of the AP-1 signaling pathway - cell viability counter screen (AID 1159525; calls by dose curve; also: nearly all actives have a fitted effect of over 55% in size); conditions: ME-180 AP-1-bla cells viability, ATP luminescence, 5 h; at 76.8 µM (top of the series) unless noted
In short: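 Luminescent ATP readout (Cell Titer Glo, 30 min RT), normalised to DMSO and tetra n-octyl ammonium bromide controls. Cells were ME-180 AP-1-bla in 0.5% dialyzed FBS Opti-MEM, with a 5 h, 37 °C compound exposure.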

[4] = qHTS assay to identify small molecule agonists of the AP-1 signaling pathway (AID 1159526; calls by dose curve; also: % is scaled to controls: 0 for no effect and ±100 for the full control effect); conditions: ME-180 (cervical carcinoma) AP-1-bla reporter, beta-lactamase FRET ratio, 5 h; at 76.8 µM (top of the series) unless noted
[5] = biological target: Retinoic acid receptor RXR-alpha (Homo sapiens) (UniProt P19793); assay: qHTS assay to identify small molecule agonists of the RXR signaling pathway (AID 1159527; calls by dose curve; also: % is scaled to controls: 0 for no effect and ±100 for the full control effect; nearly all actives have a fitted effect of over 35% in size); conditions: HEK293T RXRa-UAS-bla, beta-lactamase ratio, 16 h; at 76.8 µM (top of the series) unless noted
In short: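 16 hr incubation of compound-treated RXR-alpha-UAS-bla HEK 293T cells (2% charcoal-stripped FBS, 37 C) preceded a 2 hr room-temperature LiveBLAzer FRET substrate step and blue/green fluorescence measurement.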

[6] = qHTS assay to identify small molecule agonists of the RXR signaling pathway - cell viability counter screen (AID 1159529); conditions: RXR-alpha-bla HEK293T viability, CellTiter-Glo, 16 h; at 76.8 µM (top of the series) unless noted; also: % is scaled to controls: 0 for no effect and ±100 for the full control effect; nearly all actives have a fitted effect of over 50% in size
Description: National Center for Advancing Translational Sciences [NCATS]
NIH Chemical Genomics Center [NCGC]
U.S. Environmental Protection Agency [EPA]
National Institutes of Environmental Health Sciences [NIEHS]
National Toxicology Program [NTP]
U.S. Food and Drug Administration [FDA]
The Retinoid X receptor (RXR), a nuclear hormone receptor expressed in liver, spleen, placenta, epidermis, central nervous system. These receptors are able to form homo and heterodimers with other nuclear receptors and due to this heterodimerizing ability, RXR functions as master regulators producing diverse physiological effects. Three subtypes of RXR exist; alpha, beta and gamma. Retinoid X receptor alpha (RXR-alpha) has potential roles in metabolic signaling pathways, skin alopecia, dermal cysts, cardiac development, insulin sensitization etc. Therefore screening environmental chemicals on RXR-alpha signaling can be used for the studies focused on such therapeutic applications. For quantification of RXR-alpha ligands signaling, GeneBLAzer RXR alpha-UAS-bla HEK 293T (Life Technologies, Carlsbad, CA) cells containing a beta-lactamase reporter-gene under control of Retinoid X receptor-alpha response element were used to screen Tox21 10K library. The cytotoxicity of the Tox21 compound library against the RXR-alpha HEK 293T cell line was tested in parallel by measuring cell viability using CellTiter-Glo assay (Promega Corporation, Madison, WI) in the same wells.
Tox21 Assay Protocol Summary:
RXR-alpha HEK 293T cells were dispensed at 2,000 cells/6 uL of assay medium containing 2% charcoal-stripped FBS using a Multidrop Combi (ThermoFisher Scientific, Waltham, MA) dispenser. The assay was performed in black wall/clear-bottom 1536-well plates (Greiner Bio-One North America Inc. Monroe, NC). Tetraoctyl ammonium bromide was used as a positive control in the cytotoxicity screen. After the assay plates were incubated at 37 C and 5% CO2 for 5 hr, 23 nL of compounds dissolved in DMSO, positive control or DMSO only were transferred to the assay plate by a Pintool station (Kalypsys, San Diego, CA). The assay plates were incubated at 37 C and 5% CO2 for 16 hr. One uL of LiveBLAzer B/G FRET substrate (Life Technologies) was added using a Flying Reagent Dispenser (FRD) (Aurora Discovery, San Diego, CA) and the plates were incubated at room temperature for 2 hr. Fluorescence intensity (405 nm excitation, 460/530 nm emission) was measured using an Envision plate reader (PerkinElmer, Shelton, CT). For cytotoxicity, 4 uL/well of CellTiter-Glo reagent was added into the assay plates using an FRD. After 30 min incubation at room temperature, the luminescence intensity was measured using a ViewLux plate reader (PerkinElmer).

[7] = qHTS assay to identify small molecule antagonists of the retinoid acid receptor (RAR) signaling pathway - cell viability counter screen (AID 1159551); conditions: C3RL4 cells viability, ATP luminescence (CellTiter-Glo), 6 h; at 92.4 µM (top of the series) unless noted; also: % is scaled to controls: 0 for no effect and ±100 for the full control effect; nearly all actives have a fitted effect of over 35% in size
Description: U.S. Tox21 Program National Center for Advancing Translational Sciences [NCATS] NIH Chemical Genomics Center [NCGC] U.S. Environmental Protection Agency [EPA] National Institutes of Environmental Health Sciences [NIEHS] National Toxicology Program [NTP] U.S. Food and Drug Administration [FDA] Tox21 Assay Overview: All-trans Retinoic acid (atRA) is the potent natural metabolite of retinol and plays an important role in normal embryonic development and maintenance of cellular phenotype in adult animals. atRA is the activating ligand for the retinoic acid receptors (RARs) which form heterodimers with retinoid X receptors (RXRs) on the retinoic acid response element (RARE). Through activation of the RAR/RXRs nuclear receptors, atRA regulates the transcription of a large number of protein-coding genes and regulatory RNAs. Intracellular levels of atRA are controlled by the retinol signaling pathway (RSP) that regulates the biosynthesis and catabolism of atRA to maintain physiological levels. Chemicals that interfere with the RSP can cause abnormal intracellular levels of atRA and therefore are potential developmental toxicants. To assess compounds for the potential adverse effect on embryonic development through interfering with retinol signaling, a cell-based RARE luciferase reporter gene assay was used. C3RL4 cell line (OARSA/CFSAN/FDA, Laurel, MD) was used to screen Tox21 10K compound library for identifying inhibitors of the RSP. Also cytotoxicity was assessed by determining the viability of cells based on the quantitation of ATP.
Tox21 Assay Protocol Summary: C3RL4 cells were seeded at 1,000/well in 4 uL of assay medium into white solid 1,536-well tissue culture plates (Greiner Bio-One North America Inc. Monroe, NC) using a Multidrop Combi (Thermo Scientific, Waltham, MA) dispenser. After incubation at 37 C and 5% CO2 for an overnight, 23 nL of compounds dissolved in DMSO, positive control or DMSO only were transferred by a Pintool station (Kalypsys, San Diego, CA). One ul of 1 uM (final concentration) of Retinol was added right after the compound addition by using a Flying Reagent Dispenser (FRD) (Aurora Discovery, San Diego, CA). After 6 hr incubation at 37 C and 5% CO2, 5 uL of CellTiter-Glo reagent (Promega Corporation, Madison, WI) was added to each assay plate using an FRD. Luminescence was quantified on a ViewLux plate reader (PerkinElmer, Waltham, MA) after 30 min incubation at room temperature.

[8] = qHTS assay to identify small molecule antagonists of the retinoic acid receptor (RAR) signaling pathway (AID 1159552; also: % is scaled to controls: 0 for no effect and ±100 for the full control effect; nearly all actives have a fitted effect of over 50% in size); conditions: C3RL4 RARE luciferase reporter, retinol-stimulated, 6 h; at 92.4 µM (top of the series) unless noted
In short: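 C3RL4 RARE-luc cells, overnight plating; retinol 1 uM final added right after compound; 6 hr 37 C; luciferase read at 30 min RT.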

[9] = qHTS assay to identify small molecule agonists of the endoplasmic reticulum stress response signaling pathway (AID 1159516; active = well fitted activation curve with a large enough effect in the signal ratio in the repeat runs, not every such curve was filed as active; the % refers to the signal ratio; also: % is scaled to controls: 0 for no effect and ±100 for the full control effect); conditions: ESRE-bla HeLa, ER stress beta-lactamase reporter, 5 h
In short: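 Reporter HeLa cells (ESRE-beta-lactamase) underwent 5 hr compound incubation at 37 C and 5% CO2 in quantitative HTS format. Detection followed 2 hr of FRET substrate loading at room temperature.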

[10] = qHTS assay to identify small molecule agonists of the endoplasmic reticulum stress response signaling pathway - cell viability counter screen (AID 1159517; calls by dose curve); conditions: ESRE-bla HeLa viability, CellTiter-Glo luminescence, 5 h
In short: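 HeLa cells carrying an ESRE-driven beta-lactamase reporter receive compound for 5 hr at 37 C. Cell viability is then gauged with CellTiter-Glo by luminescence, 30 min at room temperature.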

Row | SMILES | activity, negative = cytotoxicity [1] | Potency [2] | viability change, negative = cytotoxic [3] | activation [4] | activation [5] | activity change, negative = cytotoxicity [6] | activity change, negative = cytotoxicity [7] | activity, negative = inhibition [8] | activation ([9]; at 61 µM (top of the series)) | activation ([9]; at 78.8 µM (top of the series)) | activity change, negative = cytotoxicity ([10]; at 61 µM (top of the series)) | activity change, negative = cytotoxicity ([10]; at 78.8 µM (top of the series))
1 | ClCCNCCCl | inactive: 0.624% | inactive | inactive: -3.76% | inactive: 1.28% | inactive: -1.98% | inactive: -0.294% | inactive: -0.376% | inactive: -6.02% | – | – | – | –
2 | CC(C)OP(OC(C)C)OC(C)C | inactive: 9.4% | – | inactive: 1.72% | – | inactive: 5.57% | inactive: -7.47% | inactive: -0.346% | inactive: -3.55% | – | – | – | –
3 | O=[N+]([O-])c1ccccc1[N+](=O)[O-] | inactive: -2.34% and inactive: -3.05% | active: 31.4 µM | inactive: 10.3% and inactive: 11.2% | inactive: -0.27% and inactive: -0.385% | – | inactive: -5.11% and inactive: -12.6% | inactive: -1.12% and inactive: -1.13% | – | inactive: -5.61% | inactive: -5.17% | inactive: 3.55% | inactive: -21%
4 | ClCCOP(OCCCl)OCCCl | inactive: 0.818% and inactive: 5.75% | inactive | inactive: 2.83% and inactive: 1.38% | inactive: 6.58% and inactive: 0.744% | inactive: 15.4% and inactive: -4.47% | inactive: -2.76% and inactive: 8.49% | inactive: -1.08% and inactive: 0.381% | inactive: 21.6% and inactive: 12.5% | inactive: 1.2% | – | inactive: 18.9% | inactive: 7.42%
5 | CCOP(=S)(Cl)OCC | inactive: -15.4% | – | inactive: -7.37% | – | – | inactive: 1.59% | inactive: -2.88% | – | inactive: 1.05% | – | inactive: -3.77% | –
6 | CCC(=O)N(c1ccccc1)C1CCNCC1 | inactive: 5.06% [at 42.5 µM] | – | inactive: -10.9% [at 35.3 µM] | inactive: 0.846% [at 35.3 µM] | inactive: 7.03% [at 35.3 µM] | inactive: -12.4% [at 35.3 µM] | inactive: -2.18% [at 42.5 µM] | inactive: -7.03% [at 42.5 µM] | inactive: 0.883% | – | – | –
7 | CCOC(=O)N1CCC(=O)CC1 | inactive: 3.94% [at 42.5 µM] | – | inactive: 1.61% [at 35.3 µM] | inactive: -3.14% [at 35.3 µM] | inactive: 4.89% [at 35.3 µM] | inactive: 3.24% [at 35.3 µM] | inactive: 1.98% [at 42.5 µM] | inactive: 4.56% [at 42.5 µM] | inactive: -0.956% | – | inactive: 7.46% | –
8 | CCOP(=O)(Cl)Cl | inactive: -1.64% and inactive: 3.57% | inactive | inactive: 2.08% and inactive: -4.75% | inactive: -0.0931% and inactive: -0.236% | inactive: -10.2% and inactive: -5.05% | inactive: 17.3% and inactive: 4.98% | inactive: 4.22% and inactive: 2.89% | inactive: -6.93% and inactive: 1.06% | inactive: -0.977% and inactive: -0.0866% | – | inactive: -28.2% and inactive: 19.2% | –

From PubChem BioAssay (Tox21)
